Results on 1 molecule are retold here after patent publication US7109329B2, “Neurologically active compounds and compounds with multiple activities” (priority 1988, dated 2006).

A short description of the assay: Brain and core temperature of treated rats in a room at 4°–5°. Format: in vivo, Sprague-Dawley rats. The note with it: 12 mg/kg IP.

`N=C(N)N/N=C/c1c(Cl)cccc1Cl` [guanabenz]: the “colonic (core) temperature after 15 minutes” value was “approximately 24 °C”, the “colonic (core) temperature after 22 minutes” value was found to be 22 °C, the “colonic (core) temperature after 30 minutes” value came to 20 °C and the “colonic (core) temperature after 45 minutes” value is 17 °C.
